Measured values as given in paper PMC12509120, “Complex Investigation of the Similarities and Differences between Ten Commercially Available Human Serum Albumin Preparations” (ACS Omega, 2025).

What was measured:
[1] = Fluorescence quenching of HSA by site I marker furosemide; type: binding; conditions: HSA 2 μM, furosemide 0–6 μM, PBS pH 7.4, λex 295 nm, λem 340 nm, mean ± SD
Procedure: (§1) Fluorescence measurements were performed with a Hitachi F-4500 fluorescence spectrophotometer (Tokyo, Japan) at room temperature. Emission spectra of HSA solutions were recorded using 295 nm excitation wavelength. In quenching studies, increasing levels (final concentrations: 0, 1, 2, 3, 4, 5, and 6 μM) of site I (furosemide and iodipamide), site II (diazepam and ketoprofen), or heme site (biliverdin and methyl orange) markers were added to albumin (2 μM), and then their quenching effects were evaluated at 340 nm. After background correction, the inner-filter effects of ligands were also corrected based on the following equation: Icor=Iobs×10^(Aex+Aem)/2 where I cor and I obs are the corrected and observed fluorescence emission signals at 340 nm, respectively. Furthermore, A ex and A em are the absorbance values of the site markers applied at 295 and 340 nm, respectively. Stern–Volmer quenching constants (K SV) were determined with linear fitting, employing the following equation: I0/I=1+KSV×[Q] where I 0 marks the fluorescence emission signal of HSA without the ligand, I denotes the emission intensity of HSA in the presence of the ligand, and [Q] is the molar concentration of the quencher.

[2] = Fluorescence quenching of HSA by site I marker iodipamide; type: binding; conditions: HSA 2 μM, iodipamide 0–6 μM, PBS pH 7.4, λex 295 nm, λem 340 nm, mean ± SD
Procedure: as §1

[3] = Fluorescence quenching of HSA by site II marker diazepam; type: binding; conditions: HSA 2 μM; for Stern–Volmer quenching constant K SV, diazepam–HSA complex: diazepam 0–6 μM, PBS pH 7.4, λex 295 nm, λem 340 nm, mean ± SD; for Quenching effect of diazepam on the emission signal of albumin: ligand 0–6 μM, relative to other albumins
Procedure: as §1

[4] = Fluorescence quenching of HSA by site II marker ketoprofen; type: binding; conditions: HSA 2 μM, ketoprofen 0–6 μM, PBS pH 7.4, λex 295 nm, λem 340 nm, mean ± SD
Procedure: as §1

[5] = Fluorescence quenching of HSA by heme site marker biliverdin; type: binding; conditions: HSA 2 μM; for Stern–Volmer quenching constant K SV, biliverdin–HSA complex / K SV of biliverdin–HSA complex: biliverdin 0–6 μM, λem 340 nm; for Stern–Volmer quenching constant K SV, biliverdin–HSA complex: PBS pH 7.4, λex 295 nm, mean ± SD
Procedure: as §1

[6] = Fluorescence quenching of HSA by heme site marker methyl orange; type: binding; conditions: HSA 2 μM; for Stern–Volmer quenching constant K SV, methyl orange–HSA complex: methyl orange 0–6 μM, PBS pH 7.4, λex 295 nm, λem 340 nm, mean ± SD
Procedure: as §1

[7] = Ultrafiltration with site I marker warfarin; type: binding; conditions: warfarin 1.0 μM, HSA 3.5 or 6.0 μM, PBS pH 7.4, 30 kDa filter
Procedure: (§2) In ultrafiltration experiments, we applied our previously reported models. , Briefly, Amicon Ultra centrifugal filters (30 kDa; Merck, Darmstadt, Germany) were washed once with water and once with PBS (each 500 μL). Then, samples (500 μL) were filtered for 10 min (centrifugation: 7500g, 25 °C, fixed angle rotor). Since HSA and albumin-bound molecules cannot pass through the filter with a 30 kDa cutoff value, HSA retains the bound ligand molecules, resulting in the decreased concentrations of site markers in the filtrate. , In the first experiment, the site I marker warfarin (1.0 μM) was filtered without and with HSA (3.5 or 6.0 μM). In the second experiment, the site II marker naproxen (1.0 μM) was filtered in the absence and presence of albumin (1.0 or 1.6 μM). After ultrafiltration, the concentrations of warfarin and naproxen were quantified in the filtrates with the previously described HPLC-FLD and HPLC-UV methods, respectively. ,

[8] = Ultrafiltration with site II marker naproxen; type: binding; conditions: naproxen 1.0 μM, HSA 1.0 or 1.6 μM, PBS, 30 kDa filter
Procedure: as §2

[9] = Fluorescence emission spectra of HSA solutions; type: physicochemical; conditions: HSA 2 μM in PBS pH 7.4, λex 295 nm; for Fluorescence emission signal: compared between preparations
Procedure: as §1
Fig. S3: Fluorescence emission spectra of HSA3 (4 μM) in PBS, and the emission signals measured in the
filtrates and in the supernatant (λ ex = 295 nm), where samples were diluted according to the nominal 4 μM
albumin concentration. Each process described below was also performed with PBS (without the protein), where
In ultrafiltration experiments, a 500 μL volume of 20 μM HSA3 solutions (dissolved in PBS or in 25 v/v%
isopropanol–PBS mixture) were filtered (10 min, 7500 g, room temperature) using Amicon Ultra centrifugal
filters (30 kDa; Merck, Darmstadt, Germany). Thereafter, the filtrate was homogenized and diluted to fivefold
volume with PBS (final isopropanol level ≈ 5 v/v%).
In the other experiment, a 150 μL volume of 240 μM HSA3 solution (dissolved in PBS) was prepared, then 300
μL of acetonitrile was added. After intensive vortexing, the precipitated protein was removed by centrifugation
(10 min, 14,000 g, room temperature). Thereafter, the supernatant was diluted to 20-fold with PBS (final
acetonitrile level ≈ 3.3 v/v%).
(1 picture or pasted object on this page, not shown here)

[10] = ligand 0–6 μM, relative to other albumins

| Substance | Stern–Volmer quenching constant K SV, furosemide–HSA complex [1] | Stern–Volmer quenching constant K SV, iodipamide–HSA complex [2] | Stern–Volmer quenching constant K SV, diazepam–HSA complex [3] | Stern–Volmer quenching constant K SV, ketoprofen–HSA complex [4] | Stern–Volmer quenching constant K SV, biliverdin–HSA complex [5] | K SV of biliverdin–HSA complex [5] [L/mol] | Stern–Volmer quenching constant K SV, methyl orange–HSA complex [6] | Filtered fraction of warfarin in the presence of HSA [7] | Filtered concentration of naproxen in the presence of HSA [8] | Quenching effect of biliverdin on the emission signal of albumin [5, 10] | Quenching effect of methyl orange on the emission signal of albumin [6, 10] | Fluorescence emission signal [9] | Fluorescence emission wavelength maximum [9] [nm] | Quenching effect of diazepam on the emission signal of albumin [3] |
| --- | --- | --- | --- | --- | --- | --- | --- | --- | --- | --- | --- | --- | --- | --- |
| HSA1: Human serum albumin preparation, Merck (Sigma-Aldrich) A1653, lot SLCD1119, lyophilized powder | 0.96 ± 0.06 × 10^–5 L/mol | 3.06 ± 0.08 × 10^–5 L/mol | 0.41 ± 0.02 × 10^–5 L/mol | 0.41 ± 0.03 × 10^–5 L/mol | 2.78 ± 0.12 × 10^–5 L/mol | 260000 to 380000 | 0.61 ± 0.07 × 10^–5 L/mol | very similar decreases | comparable changes | – | – | – | – | – |
| HSA2: Human serum albumin preparation, Merck (Sigma-Aldrich) A9511, lot SLBS5934, lyophilized powder | 1.15 ± 0.07 × 10^–5 L/mol | 2.63 ± 0.07 × 10^–5 L/mol | 0.30 ± 0.00 × 10^–5 L/mol | 0.50 ± 0.01 × 10^–5 L/mol | 5.34 ± 0.12 × 10^–5 L/mol | – | 1.24 ± 0.02 × 10^–5 L/mol | considerably higher | higher concentrations | somewhat stronger impacts | largest changes | lowest emission signal | – | – |
| HSA4: Human serum albumin preparation, Merck (EMD Millipore) 12666, lot 3856206, low heavy metals | 1.15 ± 0.11 × 10^–5 L/mol | 4.96 ± 0.10 × 10^–5 L/mol | 0.30 ± 0.01 × 10^–5 L/mol | 0.40 ± 0.02 × 10^–5 L/mol | 3.56 ± 0.11 × 10^–5 L/mol | 260000 to 380000 | 0.73 ± 0.06 × 10^–5 L/mol | very similar decreases | comparable changes | – | – | – | – | – |
| HSA5: Human serum albumin preparation, Merck (EMD Millipore) 126654, lot 3870449, lyophilized powder | 1.15 ± 0.05 × 10^–5 L/mol | 5.10 ± 0.11 × 10^–5 L/mol | 0.27 ± 0.01 × 10^–5 L/mol | 0.39 ± 0.01 × 10^–5 L/mol | 3.69 ± 0.14 × 10^–5 L/mol | 260000 to 380000 | 0.73 ± 0.03 × 10^–5 L/mol | very similar decreases | comparable changes | – | – | – | – | – |
| HSA6: Human serum albumin preparation, Merck (EMD Millipore) SRP6516, lot 8A24L75460, lyophilized powder | 1.22 ± 0.11 × 10^–5 L/mol | 3.54 ± 0.12 × 10^–5 L/mol | 0.34 ± 0.04 × 10^–5 L/mol | 0.42 ± 0.04 × 10^–5 L/mol | 2.96 ± 0.15 × 10^–5 L/mol | 260000 to 380000 | 0.69 ± 0.02 × 10^–5 L/mol | very similar decreases | comparable changes | – | – | higher | ~345 | – |
| HSA7: Human serum albumin preparation, Merck (Sigma-Aldrich) A1887, lot SLCB2530, essential fatty acid free | 0.95 ± 0.04 × 10^–5 L/mol | 3.71 ± 0.00 × 10^–5 L/mol | 0.57 ± 0.02 × 10^–5 L/mol | 0.45 ± 0.01 × 10^–5 L/mol | 2.61 ± 0.10 × 10^–5 L/mol | 260000 to 380000 | 0.49 ± 0.04 × 10^–5 L/mol | somewhat lower values | lower levels | – | – | – | – | largest changes |
| HSA9: Human serum albumin preparation, Merck (Sigma-Aldrich) A3782, lot SLCM4058, fatty acid free and globulin free | 1.10 ± 0.01 × 10^–5 L/mol | 5.97 ± 0.09 × 10^–5 L/mol | 0.67 ± 0.01 × 10^–5 L/mol | 0.48 ± 0.01 × 10^–5 L/mol | 2.94 ± 0.21 × 10^–5 L/mol | 260000 to 380000 | 0.54 ± 0.03 × 10^–5 L/mol | somewhat lower values | lower levels | – | – | – | – | largest changes |
